Chains of the proteins cited; added tags and fusions are not shown.
UniProt P41595, whole entry: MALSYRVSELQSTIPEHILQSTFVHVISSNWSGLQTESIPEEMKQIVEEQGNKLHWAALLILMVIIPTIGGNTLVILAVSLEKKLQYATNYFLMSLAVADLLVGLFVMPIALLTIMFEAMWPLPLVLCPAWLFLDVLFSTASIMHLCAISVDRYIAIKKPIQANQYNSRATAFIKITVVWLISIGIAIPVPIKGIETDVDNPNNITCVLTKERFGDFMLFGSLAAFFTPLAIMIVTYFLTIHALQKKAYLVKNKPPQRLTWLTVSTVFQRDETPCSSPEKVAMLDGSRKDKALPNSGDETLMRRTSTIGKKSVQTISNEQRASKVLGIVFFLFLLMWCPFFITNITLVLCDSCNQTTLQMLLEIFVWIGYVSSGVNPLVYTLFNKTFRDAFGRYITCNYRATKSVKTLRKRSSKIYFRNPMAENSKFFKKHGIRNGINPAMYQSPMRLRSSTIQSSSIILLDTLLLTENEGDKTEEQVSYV

According to BindingDB's records for doi:10.1161/01.cir.102.23.2836 (Nih, 2000):

Biological target: 5-hydroxytryptamine receptor 2B (Homo sapiens, UniProt P41595)

Row | SMILES | Ki
1 | CCNC(C)Cc1cccc(C(F)(F)F)c1 (configuration not stated) [NSC_3337] | 4130 nM
2 | Clc1cccc(N2CCNCC2)c1 [mCPP] | 3.2 nM
